The source of these data is patent US20260092124A1.

The chains behind the UniProt entries cited, without tags or fusion partners. Residues count along the entry.
UniProt P25942, 21-277: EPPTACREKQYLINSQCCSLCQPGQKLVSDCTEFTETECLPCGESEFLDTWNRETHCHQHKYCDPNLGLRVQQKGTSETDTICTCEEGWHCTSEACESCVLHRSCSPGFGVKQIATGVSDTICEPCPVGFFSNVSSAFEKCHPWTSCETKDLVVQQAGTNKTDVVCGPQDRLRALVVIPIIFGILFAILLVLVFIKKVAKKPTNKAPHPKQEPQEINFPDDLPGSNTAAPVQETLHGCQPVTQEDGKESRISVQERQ

Experiment [1] concerns the target human CD40 (human) (UniProt P25942). The experiment is described as follows: cell binding (GpL luciferase, HT1080-CD40); mean, n=5.
Experiment [2] has the same target. As to the kind of experiment: cell binding (GpL luciferase, HT1080-CD40); single representative experiment.

In general, Kd refers to a measure of binding affinity in units of concentration. Lower therefore signals higher affinity. Consider ChiLob7.4 IgG1 variant, for which the values for the dissociation constant Kd with human CD40 (human) [1] and in the experiment with human CD40 (human) [2] were 0.272 µg/mL and 0.27 µg/mL, respectively.
